This experiment deals with T1, sigma sites labeled by 4-[125I]BP in MCF-7 breast cancer cells (Homo sapiens, UniProt Q5BJF2).
T1 construct: Intact adherent cells were washed (2×1 mL) with 10 mM phosphate buffer; endogenous in cells; host or cells: intact adherent MCF-7 breast cancer cells
Kind of experiment: Homologous and heterologous competition for 4-[125I]BP binding in intact MCF-7 cells. The settings on record: 37° C. for 1 hr., unit printed in b378 only, not in the table.

Chains of the proteins cited; added tags and fusions are not shown.
UniProt Q5BJF2, whole entry: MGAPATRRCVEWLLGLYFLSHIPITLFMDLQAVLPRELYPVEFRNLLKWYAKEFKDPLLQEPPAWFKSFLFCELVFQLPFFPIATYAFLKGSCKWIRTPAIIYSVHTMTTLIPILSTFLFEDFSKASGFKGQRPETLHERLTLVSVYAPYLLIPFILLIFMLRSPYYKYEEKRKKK

A value given as a limit tells only on which side of the number the result lay.

As for (+)SKF 10,047, the Ki was over 10 µM. For (−)SKF 10,047 the value was over 10 µM.

In general, Ki refers to the equilibrium dissociation constant of an inhibitor or competing ligand from its target. A higher Ki goes with a looser hold on the target.
